Experimental data taken from patent US20260053920A1 (published 2026).

B1: MEL8 (TCR, V domains shown)
Valpha: QKEVEQNSGPLSVPEGAIASLNCTYSDRGSQSFFWYRQYSGKSPELIMSIYSNGDKEDGRFTAQLNKASQYVSLLIRDSQPSDSATYLCAVQKLVFGTGTRLLVSP
Vbeta: NAGVTQTPKFQVLKTGQSMTLQCAQDMNHEYMSWYRQDPGMGLRLIHYSVGAGITDQGEVPNGYNVSRSTTEDFPLRLLSAAPSQTSVYFCASSYSFTEATYEQYFGPGTRLTVT
B2: CLL9 (TCR)
alpha TRAV12-2*01 TRAJ9 CDR3: CAVGAGGFKTIF
beta TRBV2*02 TRBJ2-7 CDR3: CASSESPLSGNEQYF
B3: MEL11 (TCR)
alpha TRAV12-2*01 TRAJ30 CDR3: CAVNYEDDKIIF
beta TRBV9 TRBJ2-7 CDR3: CASSVGVQGSWEQYF
B4: MEL25 (TCR)
alpha TRAV8-6 TRAJ47 CDR3: CAVSDNGNKLVF
beta TRBV12-4 TRBJ2-7 CDR3: CASSWAGPVEQYF
B5: MEL56 (TCR)
alpha TRAV12-3 TRAJ35 CDR3: CAMSVGFGNVLHC
beta TRBV27 TRBJ2-7 CDR3: CASSLGLAGNEQYF

Experiments:
[1] = biological target: Melan A peptide on HLA-A*02:01 (human); assay: structure
[2] = biological target: Melan A peptide on HLA-A*02:01 (human); assay: multimer staining
[3] = biological target: Melan A peptide on HLA-A*02:01 (human); assay: stated without data

| Binder | binding result [2] | also measured |
| --- | --- | --- |
| B1 |  | binding result [1]: recognises |
| B2 | recognises |  |
| B3 | recognises |  |
| B4 | recognises |  |
| B5 |  | binding result [3]: recognises |
